Tested on: MelaKuits reconstructed human pigmented LSE model
Test: Inhibition of melanin in a living skin-equivalent (LSE) model
Type: cell-based
Details: 5 μM; UVB-exposed pigmented LSE; the lower the better
Description: Details of the test are as follows:
Materials: • MelaKuits®, a reconstructed human pigmented LSE model, derived from 3D culture of normal human epidermal keratinocytes and melanocytes from Asian donors.
The pigmented LSE model was exposed to UVB (50 mJ/cm^2) for seven consecutive days day at periodic intervals of 24 hours to stimulate the synthesis of melanin. The extracts were applied topically on each LSE model on day 4 and day 6 with an interval of 48 hours for refreshing. For comparison, a blank experiment was carried out in which the LSE was neither exposed to UV radiation nor was any extract applied thereon. A control experiment was also carried out in which the LSE model was exposed to UV radiation, but no other treatment was followed.
On day 8, the appearance of each LSE model was assessed by photographing them. Thereafter, all the models subjected to the test were separated from their respective inserts and placed on a white plastic plate with the stratum corneum side facing up. The luminance (L*) value was read using a spectrophotometer CM700 (Konica-Minolta). For each model, the luminance was measured thrice, and the mean value was calculated for comparison.

Substance: Atractylenolide I [AT-1]
- Melanin content as % of control: 94.9 % of control

Source: patent US11291624B2, “Compositions comprising active botanical ingredients” (CONOPCO, INC., priority 2018, dated 2022)
